Test results from patent US20240408099A1, “COMBINATION […] OF KRAS G12D INHIBITORS WITH Pan ErbB FAMILY INHIBITORS” (MIRATI THERAPEUTICS, INC., priority 2021, published 2024).

Tests used:
Assay type in all cases: in vivo, nude/nude mice
GP2D cells = assay: GP2D TGI MDS 200108-807 colorectal cancer xenograft, tumor volumes; settings: for Average Tumor Volumes: 0.25 mg/kg Q3D
Experimental: (§1) Immunocompromised nude/nude mice are inoculated in the right hind flank with cells harboring a KRas G12D mutation. When tumor volumes reach between 200-400 mm^3 in size, the mice are divided into four to five groups of 5 mice each. The first group is administered vehicle only. […] The fourth or last groups are administered the single agent dose of the KRas G12D inhibitor using the twice daily schedule and/or the 2 sequential days followed by 5 days off schedule in combination with the single agent dose of one of the EGFR inhibitors. The treatment period varies from cell line to cell line but typically is between 15-40 days. Tumor volumes are measured using a caliper every two-three days and tumor volumes are calculated by the formula: […].
(§2) 20 to 30 nude/nude mice per study were inoculated in the right hind limb with 5×10^6 LS180 cells, AsPC-1 cells, GP2D cells, Panc 02.03 cells, SW1990 cells, or SNU-1033 cells. […] Tumor volumes, measured at pre-specified days, for the five mice per group were averaged and are reported for LS180, AsPC-1, GP2D, Panc 02.03, SW1990, and SNU-1033 in Tables 2, 3, 4, 5 and 6, respectively.
Experimental Procedures. 20 nude/nude mice were inoculated with GP2D cells in the right hind flank. When the tumors reached ˜300 mm^3 four treatment groups were established with five mice per group.

SNU-1033 cells = assay: SNU-1033 TGI 46 colorectal cancer xenograft, tumor volumes; settings: for Average Tumor Volumes: 0.25 mg/dose Q3D (every 3rd day)
Experimental: as §1, §2
Experimental Procedures. 20 nude/nude mice were inoculated with SNU-1033 cells in the right hind flank. When the tumors reached ˜300 mm^3 four treatment groups were established with five mice per group.

SW1990 cells = assay: SW1990 TGI MDS #200407-807 pancreatic cancer xenograft, tumor volumes; settings: for Average Tumor Volumes: 0.25 mg/dose Q3D every 3 days
Experimental: as §1, §2
Experimental Procedures. 30 nude/nude mice were inoculated with SW1990 cells in the right hind flank. When the tumors reached ˜300 mm^3 six treatment groups were established with five mice per group.

AsPC-1 cells = assay: AsPC-1 TGI 26 pancreatic cancer xenograft, tumor volumes; settings: for Average Tumor Volumes: 0.25 mg/dose IP Q3D (every 3rd day)
Experimental: as §1
Experimental Procedures. 20 nude/nude mice were inoculated with AsPC-1 cells in the right hind flank. When the tumors reached ˜200 mm^3 four treatment groups were established with five mice per group.

Substance: Cetuximab: anti-EGFR monoclonal antibody approved for human clinical use (ImClone)
- tumor growth inhibition (GP2D cells; 0.25 mg/dose Q3D, single agent, Day 30): 0%
- Average Tumor Volumes (GP2D cells; Study Day 2): 359.72 mm^3
- Average Tumor Volumes (GP2D cells; Study Day 6): 503.18 mm^3
- Average Tumor Volumes (GP2D cells; Study Day 9): 774.9 mm^3
- Average Tumor Volumes (GP2D cells; Study Day 13): 1022.3 mm^3
- Average Tumor Volumes (GP2D cells; Study Day 16): 1333.14 mm^3
- Average Tumor Volumes (GP2D cells; Study Day 20): 1738.12 mm^3
- Average Tumor Volumes (GP2D cells; Study Day 23): 1848.12 mm^3
- Average Tumor Volumes (GP2D cells; Study Day 27): 2033.58 mm^3
- Average Tumor Volumes (GP2D cells; Study Day 30): 2098.62 mm^3
- Average Tumor Volumes (SNU-1033 cells; Study Day 1): 297.512 mm^3
- Average Tumor Volumes (SNU-1033 cells; Study Day 5): 389.768 mm^3
- Average Tumor Volumes (SNU-1033 cells; Study Day 8): 418.018 mm^3
- Average Tumor Volumes (SNU-1033 cells; Study Day 12): 448.118 mm^3
- Average Tumor Volumes (SNU-1033 cells; Study Day 15): 460.894 mm^3
- Average Tumor Volumes (SNU-1033 cells; Study Day 19): 512.09 mm^3
- Average Tumor Volumes (SNU-1033 cells; Study Day 22): 555.326 mm^3
- Average Tumor Volumes (SNU-1033 cells; Study Day 26): 618.748 mm^3
- Average Tumor Volumes (SNU-1033 cells; Study Day 29): 636.83 mm^3
- Average Tumor Volumes (SNU-1033 cells; Study Day 33): 668.412 mm^3
- tumor growth inhibition (SNU-1033 cells; 0.25 mg/dose Q3D, single agent, Day 33): 67%
- Average Tumor Volumes (SW1990 cells; Study Day 2): 448.1 mm^3
- Average Tumor Volumes (SW1990 cells; Study Day 6): 517.16 mm^3
- Average Tumor Volumes (SW1990 cells; Study Day 9): 561.72 mm^3
- Average Tumor Volumes (SW1990 cells; Study Day 13): 641.2 mm^3
- Average Tumor Volumes (SW1990 cells; Study Day 16): 749.78 mm^3
- Average Tumor Volumes (SW1990 cells; Study Day 20): 933.62 mm^3
- Average Tumor Volumes (SW1990 cells; Study Day 23): 1065.66 mm^3
- Average Tumor Volumes (SW1990 cells; Study Day −1): 365.06 mm^3
- tumor growth inhibition (SW1990 cells; 0.25 mg/dose Q3D, single agent, Day 23): 42%
- Average Tumor Volumes (AsPC-1 cells; Study Day 0): 197.598 mm^3
- Average Tumor Volumes (AsPC-1 cells; Study Day 4): 261.156 mm^3
- Average Tumor Volumes (AsPC-1 cells; Study Day 7): 303.582 mm^3
- Average Tumor Volumes (AsPC-1 cells; Study Day 11): 342.314 mm^3
- Average Tumor Volumes (AsPC-1 cells; Study Day 14): 402.046 mm^3
- Average Tumor Volumes (AsPC-1 cells; Study Day 18): 441.54 mm^3
- Average Tumor Volumes (AsPC-1 cells; Study Day 21): 472.884 mm^3
- Average Tumor Volumes (AsPC-1 cells; Study Day 25): 533.024 mm^3
- tumor growth inhibition (AsPC-1 cells; 0.25 mg/dose Q3D, single agent, Day 25): 0%
